Experimental data taken from BindingDB's records for PubMed 10411589 (The University of Queensland, 1999).

Sequences of proteins named here, by UniProt entry; tags and fusion partners are left off.
UniProt P23975, whole entry: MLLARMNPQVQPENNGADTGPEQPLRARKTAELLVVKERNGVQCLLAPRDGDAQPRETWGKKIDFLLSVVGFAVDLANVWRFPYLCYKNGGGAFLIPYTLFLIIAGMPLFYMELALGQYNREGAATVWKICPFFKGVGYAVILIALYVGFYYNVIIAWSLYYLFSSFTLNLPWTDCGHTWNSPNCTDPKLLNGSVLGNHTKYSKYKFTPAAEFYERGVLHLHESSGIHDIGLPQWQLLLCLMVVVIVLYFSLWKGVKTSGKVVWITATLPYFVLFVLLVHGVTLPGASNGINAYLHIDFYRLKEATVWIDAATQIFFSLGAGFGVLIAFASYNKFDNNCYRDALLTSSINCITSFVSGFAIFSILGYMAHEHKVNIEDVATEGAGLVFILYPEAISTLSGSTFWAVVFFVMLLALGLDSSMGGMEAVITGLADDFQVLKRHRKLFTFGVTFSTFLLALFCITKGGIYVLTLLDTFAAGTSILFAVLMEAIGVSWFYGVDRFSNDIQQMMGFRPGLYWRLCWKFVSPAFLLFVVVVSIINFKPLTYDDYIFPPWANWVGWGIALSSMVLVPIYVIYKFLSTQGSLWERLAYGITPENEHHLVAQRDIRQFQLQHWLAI

Target: Sodium-dependent noradrenaline transporter (Homo sapiens, UniProt P23975)

Question: How did the Ki turn out when `CN(C)CCCN1c2ccccc2CCc2ccccc21` was run?
Answer: 0.118 µM
